Assay results from paper PMC6287471 (International Journal for Parasitology: Drugs and Drug …, 2018).

Biological target: T1, Hco-ACC-2 WT channel (Haemonchus contortus, UniProt A0A219KWM7)
T1 sequence (A0A219KWM7 18-443): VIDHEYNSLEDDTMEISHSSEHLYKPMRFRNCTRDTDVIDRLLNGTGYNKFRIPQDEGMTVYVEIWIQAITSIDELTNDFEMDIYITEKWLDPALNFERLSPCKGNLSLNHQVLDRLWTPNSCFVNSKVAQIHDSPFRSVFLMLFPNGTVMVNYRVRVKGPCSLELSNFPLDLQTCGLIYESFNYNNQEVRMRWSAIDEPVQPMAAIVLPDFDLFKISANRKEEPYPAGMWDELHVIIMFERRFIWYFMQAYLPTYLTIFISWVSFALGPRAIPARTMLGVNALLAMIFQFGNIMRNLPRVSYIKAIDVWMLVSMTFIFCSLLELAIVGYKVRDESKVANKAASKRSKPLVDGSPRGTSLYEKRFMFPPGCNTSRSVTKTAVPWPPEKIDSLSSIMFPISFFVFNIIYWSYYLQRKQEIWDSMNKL
Assay: cell-based
Settings: EC50 ± standard error, n ≥ 5 oocytes

Q: `CC(=O)OCC[N+](C)(C)C` [Acetylcholine] was tested. Which EC50 did it give?
A: 21 ± 1 µM
